This assay deals with GCase (Homo sapiens, UniProt P04062). Kind of assay: activation of GCase in a live cell PFB assay in HELA cells. Particulars: read-out: GCase EC50. The class given is cell-based.

Protein sequences, listed by entry. Tags and fused reporters are not part of them. Residues count along the entry.
UniProt P04062, 40-536 limits assumed: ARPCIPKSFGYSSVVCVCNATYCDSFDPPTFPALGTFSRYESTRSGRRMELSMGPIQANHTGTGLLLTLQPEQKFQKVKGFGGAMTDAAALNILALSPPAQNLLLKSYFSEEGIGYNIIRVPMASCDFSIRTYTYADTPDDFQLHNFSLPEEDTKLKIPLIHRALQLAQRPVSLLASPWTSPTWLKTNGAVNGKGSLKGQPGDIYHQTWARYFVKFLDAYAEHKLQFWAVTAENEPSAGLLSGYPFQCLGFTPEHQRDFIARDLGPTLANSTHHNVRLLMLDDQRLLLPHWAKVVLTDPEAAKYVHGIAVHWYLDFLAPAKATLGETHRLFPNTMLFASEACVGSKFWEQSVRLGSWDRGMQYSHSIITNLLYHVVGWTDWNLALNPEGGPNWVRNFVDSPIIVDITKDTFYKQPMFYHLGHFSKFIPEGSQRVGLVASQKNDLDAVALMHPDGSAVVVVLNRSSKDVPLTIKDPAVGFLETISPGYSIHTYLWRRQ

As usually defined, the EC50 is the concentration needed to bring the measured effect to its halfway point. For `FC(F)Cn1ncc2cnc(N3CCC(COc4cnccc4C(F)(F)F)CC3)nc21`, the EC50 is below 10 µM.
With `FC(F)Cn1ncc2ncc(N3CCC(COc4cncc(C(F)(F)F)c4)CC3)nc21` the figure was below 10 µM.

The values are drawn from patent publication US20240262832A1, “SMALL MOLECULE MODULATORS OF GLUCOCEREBROSIDASE ACTIVITY AND USES THEREOF” (Vanqua Bio, Inc., priority 2021, published 2024).
